Legend:
[1] = Dehydrating action: moisture absorption on standing at controlled relative humidity; type: physicochemical; conditions: 25° C.
Excerpt: Anhydrous crystalline cyclotetrasaccharide; crystalline cyclotetrasaccharide, monohydrate; anhydrous amorphous cyclotetrasaccharide; and crystalline cyclotetrasaccharide, penta- or hexa-hydrate were experimented in detail on their dehydrating actions, particularly, moisture absorption abilities against saccharides and changes on standing. As a control, anhydrous crystalline α,α-trehalose, anhydrous amorphous α,α-trehalose, and crystalline α,α-trehalose, dihydrate, were used as saccharides. The experiments were as follows: […]

[2] = Dehydration and pulverization of plain yogurt by non-reducing saccharide; parameters: unit not given here
Protocol: The anhydrous crystalline cyclotetrasaccharide; crystalline cyclotetrasaccharide, monohydrate; and anhydrous amorphous cyclotetrasaccharide were respectively prepared by the methods in Examples A-1, A-2, and A-3. As the crystalline α,α-trehalose, dihydrate, a commercially available “TREHA®” commercialized by Hayashibara Shoji Inc., Okayama, Japan, was used. The anhydrous crystalline α,α-trehalose and the anhydrous amorphous α,α-trehalose used in this experiment were prepared from a commercialized crystalline α,α-trehalose, dihydrate, using the methods disclosed in Examples for Reference 1 and 3 in Japanese Patent Kokai No. 170,221/94. To four parts by weight of a plain yogurt with a moisture content of about 77% was added either of the above saccharides in an amount of 11 to 16 parts by weight. […] The judgement was conducted in such a manner of sufficiently dehydrating the resulting mixtures to be solidified, subjected to a pulverizer for pulverization, and evaluated as “◯”, when the solids were easily pulverized; “Δ”, when the dehydration of the resulting mixtures was rather insufficient and the pulverization of solids was substantially difficult, though the resulting mixtures were solidified; and “x”, when the dehydration of the resulting mixtures was insufficient and could not be pulverized by a pulverizer.

moisture content (%) by the Karl Fisher method ([1]; relative humidity 60%, 0 days after treatment): 13.0%
moisture content (%) by the Karl Fisher method ([1]; relative humidity 60%, 1 day after treatment): 13.1%
moisture content (%) by the Karl Fisher method ([1]; relative humidity 60%, 2 days after treatment): 13.1%
moisture content (%) by the Karl Fisher method ([1]; relative humidity 60%, 3 days after treatment): 13.1%
moisture content (%) by the Karl Fisher method ([1]; relative humidity 60%, 7 days after treatment): 13.2%
moisture content (%) by the Karl Fisher method ([1]; relative humidity 75%, 0 days after treatment): 13.0%
moisture content (%) by the Karl Fisher method ([1]; relative humidity 75%, 1 day after treatment): 13.1%
moisture content (%) by the Karl Fisher method ([1]; relative humidity 75%, 2 days after treatment): 13.1%
moisture content (%) by the Karl Fisher method ([1]; relative humidity 75%, 3 days after treatment): 13.1%
moisture content (%) by the Karl Fisher method ([1]; relative humidity 75%, 7 days after treatment): 13.1%
Water content (before use) [2]: 13.0
Substance: crystalline cyclotetrasaccharide, penta- or hexa-hydrate [Saccharide D]

Reference: US7186701B2, “Dehydrating agent and method for dehydrating moist article using the agent and dehydrated article obtained by the method” (Kabushiki Kaisha Hayashibara Seibutsu Kagaku Kenkyujo, priority 2001, dated 2007)
